Experimental data: US20260382623A1, “NOVEL COMPOUND FOR INHIBITING PROTEIN KINASES AND PHARMACEUTICAL COMPOSITION COMPRISING SAME” (published 2026)

Sequences of proteins named here, by UniProt entry; tags and fusion partners are left off. Residues count along the entry.
UniProt Q9H1R3, whole entry: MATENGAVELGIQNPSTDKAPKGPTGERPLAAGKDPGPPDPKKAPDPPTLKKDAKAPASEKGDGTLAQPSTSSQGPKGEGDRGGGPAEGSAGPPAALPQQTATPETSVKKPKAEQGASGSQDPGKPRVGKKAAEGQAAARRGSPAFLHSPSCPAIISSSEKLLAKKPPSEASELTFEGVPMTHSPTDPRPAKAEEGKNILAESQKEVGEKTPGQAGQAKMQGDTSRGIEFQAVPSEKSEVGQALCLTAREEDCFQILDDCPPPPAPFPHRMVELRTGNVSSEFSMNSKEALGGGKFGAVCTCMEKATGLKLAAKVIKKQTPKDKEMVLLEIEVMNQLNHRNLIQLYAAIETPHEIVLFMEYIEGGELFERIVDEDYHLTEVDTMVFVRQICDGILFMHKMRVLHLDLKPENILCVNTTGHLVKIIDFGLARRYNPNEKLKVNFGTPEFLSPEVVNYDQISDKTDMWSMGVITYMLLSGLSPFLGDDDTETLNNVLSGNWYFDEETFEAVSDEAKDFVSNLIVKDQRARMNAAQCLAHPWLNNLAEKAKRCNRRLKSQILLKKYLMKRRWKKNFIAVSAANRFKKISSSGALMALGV
UniProt Q15303, 26-1308 limits assumed: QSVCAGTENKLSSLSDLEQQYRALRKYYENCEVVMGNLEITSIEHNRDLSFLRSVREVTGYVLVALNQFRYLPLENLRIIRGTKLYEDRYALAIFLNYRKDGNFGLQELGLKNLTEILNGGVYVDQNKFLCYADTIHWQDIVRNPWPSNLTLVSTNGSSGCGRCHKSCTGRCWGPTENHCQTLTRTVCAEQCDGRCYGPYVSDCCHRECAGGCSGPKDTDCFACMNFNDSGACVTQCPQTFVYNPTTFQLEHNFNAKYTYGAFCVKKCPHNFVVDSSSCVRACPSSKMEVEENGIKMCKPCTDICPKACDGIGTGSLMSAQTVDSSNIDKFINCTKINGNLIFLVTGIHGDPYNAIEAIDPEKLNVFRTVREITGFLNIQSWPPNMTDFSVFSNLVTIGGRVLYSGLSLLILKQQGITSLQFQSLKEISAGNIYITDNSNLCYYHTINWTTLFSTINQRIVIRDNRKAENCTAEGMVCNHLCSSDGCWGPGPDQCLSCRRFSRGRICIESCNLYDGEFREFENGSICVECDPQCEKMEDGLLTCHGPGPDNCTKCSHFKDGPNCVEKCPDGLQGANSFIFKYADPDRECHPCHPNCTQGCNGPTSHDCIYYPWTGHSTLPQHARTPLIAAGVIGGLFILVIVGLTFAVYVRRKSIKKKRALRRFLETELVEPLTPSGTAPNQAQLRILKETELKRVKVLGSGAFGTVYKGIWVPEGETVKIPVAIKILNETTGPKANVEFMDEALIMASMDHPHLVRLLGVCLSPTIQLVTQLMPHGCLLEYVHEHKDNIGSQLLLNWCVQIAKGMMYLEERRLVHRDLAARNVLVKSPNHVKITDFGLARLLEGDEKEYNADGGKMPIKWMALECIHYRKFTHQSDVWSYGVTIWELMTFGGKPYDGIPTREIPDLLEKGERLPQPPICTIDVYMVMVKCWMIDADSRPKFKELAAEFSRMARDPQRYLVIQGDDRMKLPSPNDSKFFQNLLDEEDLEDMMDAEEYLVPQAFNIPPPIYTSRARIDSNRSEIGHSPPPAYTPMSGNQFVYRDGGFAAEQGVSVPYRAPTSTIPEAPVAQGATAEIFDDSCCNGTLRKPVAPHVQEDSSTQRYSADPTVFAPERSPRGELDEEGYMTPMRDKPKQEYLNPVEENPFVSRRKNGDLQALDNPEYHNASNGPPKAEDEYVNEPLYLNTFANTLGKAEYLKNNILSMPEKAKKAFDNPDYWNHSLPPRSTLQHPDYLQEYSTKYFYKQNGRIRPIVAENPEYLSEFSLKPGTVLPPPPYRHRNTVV
UniProt P54762, 18-984 limits assumed: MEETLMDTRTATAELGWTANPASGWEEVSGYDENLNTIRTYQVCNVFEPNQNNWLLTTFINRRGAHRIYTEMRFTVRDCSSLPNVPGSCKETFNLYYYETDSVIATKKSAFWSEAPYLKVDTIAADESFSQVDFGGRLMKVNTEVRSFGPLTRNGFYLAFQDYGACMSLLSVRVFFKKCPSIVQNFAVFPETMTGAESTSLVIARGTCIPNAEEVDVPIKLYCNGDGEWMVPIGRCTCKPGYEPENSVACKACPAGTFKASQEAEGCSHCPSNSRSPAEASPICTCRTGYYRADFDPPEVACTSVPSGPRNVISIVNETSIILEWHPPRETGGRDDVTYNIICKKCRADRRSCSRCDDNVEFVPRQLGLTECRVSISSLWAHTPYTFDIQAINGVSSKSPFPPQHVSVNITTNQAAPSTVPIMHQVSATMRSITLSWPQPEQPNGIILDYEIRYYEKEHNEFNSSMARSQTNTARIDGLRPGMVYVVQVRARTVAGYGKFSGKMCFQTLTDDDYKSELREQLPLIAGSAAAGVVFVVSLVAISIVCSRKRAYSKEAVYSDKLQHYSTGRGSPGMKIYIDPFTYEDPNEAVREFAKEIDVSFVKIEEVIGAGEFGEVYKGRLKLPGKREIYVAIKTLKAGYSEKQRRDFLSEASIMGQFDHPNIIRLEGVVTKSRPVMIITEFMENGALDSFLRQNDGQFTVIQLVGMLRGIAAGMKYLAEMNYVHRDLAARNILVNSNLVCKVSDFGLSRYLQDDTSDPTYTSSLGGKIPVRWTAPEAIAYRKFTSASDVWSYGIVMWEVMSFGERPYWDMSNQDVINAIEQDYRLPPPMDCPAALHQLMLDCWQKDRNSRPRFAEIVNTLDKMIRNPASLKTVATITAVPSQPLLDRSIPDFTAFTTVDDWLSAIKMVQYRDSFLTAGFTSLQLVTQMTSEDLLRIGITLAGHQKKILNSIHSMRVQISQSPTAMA
UniProt Q8N4C8, whole entry: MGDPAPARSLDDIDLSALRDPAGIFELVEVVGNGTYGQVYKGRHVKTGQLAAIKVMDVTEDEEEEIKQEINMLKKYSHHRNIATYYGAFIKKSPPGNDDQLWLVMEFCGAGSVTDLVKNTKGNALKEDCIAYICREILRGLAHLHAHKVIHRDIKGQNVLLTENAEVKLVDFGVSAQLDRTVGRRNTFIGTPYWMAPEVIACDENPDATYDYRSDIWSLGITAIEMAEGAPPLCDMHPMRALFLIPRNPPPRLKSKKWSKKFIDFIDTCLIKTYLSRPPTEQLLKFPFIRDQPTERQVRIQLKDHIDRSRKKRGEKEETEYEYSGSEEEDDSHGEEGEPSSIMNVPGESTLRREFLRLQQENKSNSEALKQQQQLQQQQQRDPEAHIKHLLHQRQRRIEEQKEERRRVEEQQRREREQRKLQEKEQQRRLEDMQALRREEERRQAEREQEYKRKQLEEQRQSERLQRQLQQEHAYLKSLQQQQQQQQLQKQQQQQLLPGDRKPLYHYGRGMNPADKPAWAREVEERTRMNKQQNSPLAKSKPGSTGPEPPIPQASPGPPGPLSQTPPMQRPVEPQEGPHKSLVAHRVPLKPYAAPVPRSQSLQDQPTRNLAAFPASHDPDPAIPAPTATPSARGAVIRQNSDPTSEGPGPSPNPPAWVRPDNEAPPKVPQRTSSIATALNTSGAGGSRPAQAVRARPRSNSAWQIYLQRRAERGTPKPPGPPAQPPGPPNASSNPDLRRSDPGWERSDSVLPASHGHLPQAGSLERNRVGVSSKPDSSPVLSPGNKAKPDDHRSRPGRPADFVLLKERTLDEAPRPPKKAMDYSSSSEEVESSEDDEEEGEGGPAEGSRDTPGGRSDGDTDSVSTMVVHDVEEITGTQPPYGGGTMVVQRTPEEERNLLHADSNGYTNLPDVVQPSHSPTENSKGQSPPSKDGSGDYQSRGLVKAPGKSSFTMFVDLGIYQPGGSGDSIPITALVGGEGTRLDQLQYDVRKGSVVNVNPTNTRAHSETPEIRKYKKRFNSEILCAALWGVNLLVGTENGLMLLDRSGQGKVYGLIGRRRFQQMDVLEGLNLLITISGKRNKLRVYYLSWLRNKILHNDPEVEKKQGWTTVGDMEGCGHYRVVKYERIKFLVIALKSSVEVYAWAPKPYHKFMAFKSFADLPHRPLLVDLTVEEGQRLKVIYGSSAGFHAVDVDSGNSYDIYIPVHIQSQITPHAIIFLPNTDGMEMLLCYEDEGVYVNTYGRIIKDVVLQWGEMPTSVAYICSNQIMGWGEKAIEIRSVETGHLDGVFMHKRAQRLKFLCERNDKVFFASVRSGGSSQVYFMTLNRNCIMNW
UniProt P54756, 25-1037 limits assumed: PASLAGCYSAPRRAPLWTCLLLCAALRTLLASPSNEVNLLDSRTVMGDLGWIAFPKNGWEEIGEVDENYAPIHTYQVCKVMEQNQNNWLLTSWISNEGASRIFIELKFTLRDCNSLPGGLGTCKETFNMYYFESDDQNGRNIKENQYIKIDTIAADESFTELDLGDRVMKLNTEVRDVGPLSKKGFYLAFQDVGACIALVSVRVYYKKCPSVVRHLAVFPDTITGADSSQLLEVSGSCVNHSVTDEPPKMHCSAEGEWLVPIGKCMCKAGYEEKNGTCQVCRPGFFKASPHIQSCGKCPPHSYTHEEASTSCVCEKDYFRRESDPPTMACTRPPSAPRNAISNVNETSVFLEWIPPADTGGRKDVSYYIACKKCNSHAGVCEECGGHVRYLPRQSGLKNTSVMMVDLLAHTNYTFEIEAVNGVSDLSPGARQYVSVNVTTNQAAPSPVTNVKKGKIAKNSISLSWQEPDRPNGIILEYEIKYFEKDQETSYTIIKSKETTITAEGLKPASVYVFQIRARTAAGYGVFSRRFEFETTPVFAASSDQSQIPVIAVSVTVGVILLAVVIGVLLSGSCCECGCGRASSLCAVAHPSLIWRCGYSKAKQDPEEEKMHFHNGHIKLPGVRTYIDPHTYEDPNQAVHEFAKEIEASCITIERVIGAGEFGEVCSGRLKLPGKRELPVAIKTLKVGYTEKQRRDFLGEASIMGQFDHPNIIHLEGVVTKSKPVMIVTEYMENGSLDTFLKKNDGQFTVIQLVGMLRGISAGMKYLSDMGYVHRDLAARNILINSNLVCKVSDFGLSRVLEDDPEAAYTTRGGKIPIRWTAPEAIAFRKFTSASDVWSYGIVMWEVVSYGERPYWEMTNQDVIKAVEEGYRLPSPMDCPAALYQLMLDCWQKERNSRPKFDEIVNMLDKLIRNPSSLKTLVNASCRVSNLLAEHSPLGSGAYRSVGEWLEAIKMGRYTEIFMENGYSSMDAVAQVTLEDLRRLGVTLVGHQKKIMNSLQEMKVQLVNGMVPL
UniProt P16591, whole entry: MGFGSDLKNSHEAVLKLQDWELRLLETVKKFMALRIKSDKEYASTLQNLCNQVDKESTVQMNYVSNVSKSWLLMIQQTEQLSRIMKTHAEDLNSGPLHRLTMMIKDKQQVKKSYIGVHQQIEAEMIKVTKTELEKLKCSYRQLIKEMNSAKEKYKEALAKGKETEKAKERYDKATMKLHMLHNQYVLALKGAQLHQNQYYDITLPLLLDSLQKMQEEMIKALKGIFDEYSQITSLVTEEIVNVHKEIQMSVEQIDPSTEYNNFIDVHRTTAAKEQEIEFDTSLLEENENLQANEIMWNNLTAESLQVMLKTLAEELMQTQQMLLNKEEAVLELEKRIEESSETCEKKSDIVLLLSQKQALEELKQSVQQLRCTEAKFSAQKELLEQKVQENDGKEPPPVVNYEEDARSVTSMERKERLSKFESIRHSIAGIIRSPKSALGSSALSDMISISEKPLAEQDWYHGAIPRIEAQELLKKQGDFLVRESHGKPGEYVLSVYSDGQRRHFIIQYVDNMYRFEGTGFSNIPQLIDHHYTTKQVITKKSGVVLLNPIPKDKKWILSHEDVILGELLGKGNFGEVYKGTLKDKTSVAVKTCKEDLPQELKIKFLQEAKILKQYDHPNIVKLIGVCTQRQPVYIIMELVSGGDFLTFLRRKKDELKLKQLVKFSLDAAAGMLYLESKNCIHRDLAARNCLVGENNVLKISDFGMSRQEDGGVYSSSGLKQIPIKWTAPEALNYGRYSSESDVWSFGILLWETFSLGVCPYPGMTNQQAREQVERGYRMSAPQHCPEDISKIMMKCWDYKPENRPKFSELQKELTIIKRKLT
UniProt P06241, whole entry: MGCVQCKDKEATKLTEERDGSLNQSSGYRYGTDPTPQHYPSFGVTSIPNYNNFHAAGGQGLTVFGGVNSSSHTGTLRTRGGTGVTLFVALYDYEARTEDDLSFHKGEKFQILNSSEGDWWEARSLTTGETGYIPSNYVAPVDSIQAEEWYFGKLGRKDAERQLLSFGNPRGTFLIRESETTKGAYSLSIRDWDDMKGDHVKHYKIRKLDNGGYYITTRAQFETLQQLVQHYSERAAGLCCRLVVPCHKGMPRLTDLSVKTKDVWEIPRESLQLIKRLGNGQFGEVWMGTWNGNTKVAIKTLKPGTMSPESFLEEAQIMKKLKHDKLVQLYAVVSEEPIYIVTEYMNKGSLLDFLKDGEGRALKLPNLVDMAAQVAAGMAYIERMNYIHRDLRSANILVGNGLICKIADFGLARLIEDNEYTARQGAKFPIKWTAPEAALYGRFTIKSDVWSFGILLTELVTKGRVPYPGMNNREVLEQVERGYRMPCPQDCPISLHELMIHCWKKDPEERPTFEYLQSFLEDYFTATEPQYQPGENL

Key:
Experiment in all cases: Full kinase panel inhibition by Example compounds 8 and 51 at 1 μM (Tables 11 to 14; kinase named in each table line)
full kinase panel [1] = target: full kinase panel (Homo sapiens, UniProt Q9NYL2); conditions: ZAK/MLTK
full kinase panel [2] = target: full kinase panel (Homo sapiens, UniProt P07333); conditions: FMS
full kinase panel [3] = target: full kinase panel (Homo sapiens, UniProt Q9H1R3); conditions: MLCK2/MYLK2
full kinase panel [4] = target: full kinase panel (Homo sapiens, UniProt Q13882); conditions: BRK
full kinase panel [5] = target: full kinase panel (Homo sapiens, UniProt P53667); conditions: LIMK1
full kinase panel [6] = target: full kinase panel (Homo sapiens, UniProt Q13470); conditions: TNK1
full kinase panel [7] = target: full kinase panel (Homo sapiens, UniProt O43318); conditions: TAK1
full kinase panel [8] = target: full kinase panel (Homo sapiens, UniProt Q9Y2U5); conditions: MEKK2
full kinase panel [9] = target: full kinase panel (Homo sapiens, UniProt Q15303); conditions: ERBB4/HER4
full kinase panel [10] = target: full kinase panel (Homo sapiens, UniProt P54762); conditions: EPHB1
full kinase panel [11] = target: full kinase panel (Homo sapiens, UniProt Q8N4C8); conditions: MINK/MINK1
full kinase panel [12] = target: full kinase panel (Homo sapiens, UniProt P54756); conditions: EPHA5
full kinase panel [13] = target: full kinase panel (Homo sapiens, UniProt Q15759); conditions: P38B/MAPK11
full kinase panel [14] = target: full kinase panel (Homo sapiens, UniProt Q9NRM7); conditions: LATS2
full kinase panel [15] = target: full kinase panel (Homo sapiens, UniProt P54760); conditions: EPHB4
full kinase panel [16] = target: full kinase panel (Homo sapiens, UniProt P07332); conditions: FES/FPS
full kinase panel [17] = target: full kinase panel (Homo sapiens, UniProt P04626); conditions: ERBB2/HER2
full kinase panel [18] = target: full kinase panel (Homo sapiens, UniProt P16591); conditions: FER
full kinase panel [19] = target: full kinase panel (Homo sapiens, UniProt Q7L7X3); conditions: TAOK1
full kinase panel [20] = target: full kinase panel (Homo sapiens, UniProt P04629); conditions: TRKA
full kinase panel [21] = target: full kinase panel (Homo sapiens, UniProt Q15375); conditions: EPHA7
full kinase panel [22] = target: full kinase panel (Homo sapiens, UniProt P35968); conditions: KDR/VEGFR2
full kinase panel [23] = target: full kinase panel (Homo sapiens, UniProt P11362); conditions: FGFR1
full kinase panel [24] = target: full kinase panel (Homo sapiens, UniProt Q9H2K8); conditions: TAOK3/JIK
full kinase panel [25] = target: full kinase panel (Homo sapiens, UniProt P21709); conditions: EPHA1
full kinase panel [26] = target: full kinase panel (Homo sapiens, UniProt P10721); conditions: C-KIT
full kinase panel [27] = target: full kinase panel (Homo sapiens, UniProt P51451); conditions: BLK
full kinase panel [28] = target: full kinase panel (Homo sapiens, UniProt Q96S53); conditions: TESK2
full kinase panel [29] = target: full kinase panel (Homo sapiens, UniProt O94804); conditions: LOK/STK10
full kinase panel [30] = target: full kinase panel (Homo sapiens, UniProt Q16584); conditions: MLK3/MAP3K11
full kinase panel [31] = target: full kinase panel (Homo sapiens, UniProt P06241); conditions: FYN
full kinase panel [32] = target: full kinase panel (Homo sapiens, UniProt P52333); conditions: JAK3
full kinase panel [33] = target: full kinase panel (Homo sapiens, UniProt P29320); conditions: EPHA3
full kinase panel [34] = target: full kinase panel (Homo sapiens, UniProt P53671); conditions: LIMK2
full kinase panel [35] = target: full kinase panel (Homo sapiens, UniProt Q9H2G2); conditions: SLK/STK2
full kinase panel [36] = target: full kinase panel (Homo sapiens, UniProt Q8IVH8); conditions: GLK/MAP4K3
full kinase panel [37] = target: full kinase panel (Homo sapiens, UniProt P17948); conditions: FLT1/VEGFR1
full kinase panel [38] = target: full kinase panel (Homo sapiens, UniProt P54764); conditions: EPHA4
full kinase panel [39] = target: full kinase panel (Homo sapiens, UniProt P51957); conditions: NEK4
full kinase panel [40] = target: full kinase panel (Homo sapiens, UniProt P42681); conditions: TXK

For `Cc1cn(-c2cc(C(=O)Nc3ccc(C)c(N4Cc5cnc(NC6CC6)nc5C5(CC5)C4=O)c3)cc(C(F)(F)F)c2)cn1`, the “kinase inhibition (residual enzyme activity)” value (full kinase panel [1]) was “◯ (residual enzyme activity values were 40% or less, i.e., inhibited by 60% or more)”, the “kinase inhibition (residual enzyme activity)” value (full kinase panel [2]) was “◯ (residual enzyme activity values were 40% or less, i.e., inhibited by 60% or more)” and the “kinase inhibition (residual enzyme activity)” value (full kinase panel [3]) was “◯ (residual enzyme activity values were 40% or less, i.e., inhibited by 60% or more)”. For the same compound, the “kinase inhibition (residual enzyme activity)” value (full kinase panel [4]) was “◯ (residual enzyme activity values were 40% or less, i.e., inhibited by 60% or more)”, the “kinase inhibition (residual enzyme activity)” value (full kinase panel [5]) was “◯ (residual enzyme activity values were 40% or less, i.e., inhibited by 60% or more)” and the “kinase inhibition (residual enzyme activity)” value (full kinase panel [6]) was “◯ (residual enzyme activity values were 40% or less, i.e., inhibited by 60% or more)”. For the same compound, the “kinase inhibition (residual enzyme activity)” value (full kinase panel [7]) was “◯ (residual enzyme activity values were 40% or less, i.e., inhibited by 60% or more)”, the “kinase inhibition (residual enzyme activity)” value (full kinase panel [8]) was “◯ (residual enzyme activity values were 40% or less, i.e., inhibited by 60% or more)” and the “kinase inhibition (residual enzyme activity)” value (full kinase panel [9]) was “◯ (residual enzyme activity values were 40% or less, i.e., inhibited by 60% or more)”. For the same compound, the “kinase inhibition (residual enzyme activity)” value (full kinase panel [10]) was “◯ (residual enzyme activity values were 40% or less, i.e., inhibited by 60% or more)”, the “kinase inhibition (residual enzyme activity)” value (full kinase panel [11]) was “◯ (residual enzyme activity values were 40% or less, i.e., inhibited by 60% or more)” and the “kinase inhibition (residual enzyme activity)” value (full kinase panel [12]) was “◯ (residual enzyme activity values were 40% or less, i.e., inhibited by 60% or more)”. For the same compound, the “kinase inhibition (residual enzyme activity)” value (full kinase panel [13]) was “◯ (residual enzyme activity values were 40% or less, i.e., inhibited by 60% or more)”, the “kinase inhibition (residual enzyme activity)” value (full kinase panel [14]) was “◯ (residual enzyme activity values were 40% or less, i.e., inhibited by 60% or more)” and the “kinase inhibition (residual enzyme activity)” value (full kinase panel [15]) was “◯ (residual enzyme activity values were 40% or less, i.e., inhibited by 60% or more)”. The “kinase inhibition (residual enzyme activity)” value (full kinase panel [16]) was “◯ (residual enzyme activity values were 40% or less, i.e., inhibited by 60% or more)”, the “kinase inhibition (residual enzyme activity)” value (full kinase panel [17]) was “◯ (residual enzyme activity values were 40% or less, i.e., inhibited by 60% or more)” and the “kinase inhibition (residual enzyme activity)” value (full kinase panel [18]) was “◯ (residual enzyme activity values were 40% or less, i.e., inhibited by 60% or more)”. For the same compound, the “kinase inhibition (residual enzyme activity)” value (full kinase panel [19]) was “◯ (residual enzyme activity values were 40% or less, i.e., inhibited by 60% or more)”, the “kinase inhibition (residual enzyme activity)” value (full kinase panel [20]) was “◯ (residual enzyme activity values were 40% or less, i.e., inhibited by 60% or more)” and the “kinase inhibition (residual enzyme activity)” value (full kinase panel [21]) was “◯ (residual enzyme activity values were 40% or less, i.e., inhibited by 60% or more)”. For the same compound, the “kinase inhibition (residual enzyme activity)” value (full kinase panel [22]) was “◯ (residual enzyme activity values were 40% or less, i.e., inhibited by 60% or more)”, the “kinase inhibition (residual enzyme activity)” value (full kinase panel [23]) was “◯ (residual enzyme activity values were 40% or less, i.e., inhibited by 60% or more)” and the “kinase inhibition (residual enzyme activity)” value (full kinase panel [24]) was “◯ (residual enzyme activity values were 40% or less, i.e., inhibited by 60% or more)”. For the same compound, the “kinase inhibition (residual enzyme activity)” value (full kinase panel [25]) was “◯ (residual enzyme activity values were 40% or less, i.e., inhibited by 60% or more)”, the “kinase inhibition (residual enzyme activity)” value (full kinase panel [26]) was “◯ (residual enzyme activity values were 40% or less, i.e., inhibited by 60% or more)” and the “kinase inhibition (residual enzyme activity)” value (full kinase panel [27]) was “◯ (residual enzyme activity values were 40% or less, i.e., inhibited by 60% or more)”. The “kinase inhibition (residual enzyme activity)” value (full kinase panel [28]) was “◯ (residual enzyme activity values were 40% or less, i.e., inhibited by 60% or more)”, the “kinase inhibition (residual enzyme activity)” value (full kinase panel [29]) was “◯ (residual enzyme activity values were 40% or less, i.e., inhibited by 60% or more)” and the “kinase inhibition (residual enzyme activity)” value (full kinase panel [30]) was “◯ (residual enzyme activity values were 40% or less, i.e., inhibited by 60% or more)”. The “kinase inhibition (residual enzyme activity)” value (full kinase panel [31]) was “◯ (residual enzyme activity values were 40% or less, i.e., inhibited by 60% or more)”, the “kinase inhibition (residual enzyme activity)” value (full kinase panel [32]) was “◯ (residual enzyme activity values were 40% or less, i.e., inhibited by 60% or more)” and the “kinase inhibition (residual enzyme activity)” value (full kinase panel [33]) was “◯ (residual enzyme activity values were 40% or less, i.e., inhibited by 60% or more)”. For the same compound, the “kinase inhibition (residual enzyme activity)” value (full kinase panel [34]) was “◯ (residual enzyme activity values were 40% or less, i.e., inhibited by 60% or more)”, the “kinase inhibition (residual enzyme activity)” value (full kinase panel [35]) was “◯ (residual enzyme activity values were 40% or less, i.e., inhibited by 60% or more)” and the “kinase inhibition (residual enzyme activity)” value (full kinase panel [36]) was “◯ (residual enzyme activity values were 40% or less, i.e., inhibited by 60% or more)”. The “kinase inhibition (residual enzyme activity)” value (full kinase panel [37]) was “◯ (residual enzyme activity values were 40% or less, i.e., inhibited by 60% or more)”, the “kinase inhibition (residual enzyme activity)” value (full kinase panel [38]) was “◯ (residual enzyme activity values were 40% or less, i.e., inhibited by 60% or more)” and the “kinase inhibition (residual enzyme activity)” value (full kinase panel [39]) was “◯ (residual enzyme activity values were 40% or less, i.e., inhibited by 60% or more)”. The “kinase inhibition (residual enzyme activity)” value (full kinase panel [40]) was “◯ (residual enzyme activity values were 40% or less, i.e., inhibited by 60% or more)”.
